Drawing on patent US12116343B2, “Inhibitors of APOL1 and methods of using same” (Vertex Pharmaceuticals Incorporated, priority 2020, dated 2024), this text covers IC50 for one compound.

The chains behind the UniProt entries cited, without tags or fusion partners. Residues count along the entry.
UniProt O14791, 28-398 S342G/I384M limits assumed: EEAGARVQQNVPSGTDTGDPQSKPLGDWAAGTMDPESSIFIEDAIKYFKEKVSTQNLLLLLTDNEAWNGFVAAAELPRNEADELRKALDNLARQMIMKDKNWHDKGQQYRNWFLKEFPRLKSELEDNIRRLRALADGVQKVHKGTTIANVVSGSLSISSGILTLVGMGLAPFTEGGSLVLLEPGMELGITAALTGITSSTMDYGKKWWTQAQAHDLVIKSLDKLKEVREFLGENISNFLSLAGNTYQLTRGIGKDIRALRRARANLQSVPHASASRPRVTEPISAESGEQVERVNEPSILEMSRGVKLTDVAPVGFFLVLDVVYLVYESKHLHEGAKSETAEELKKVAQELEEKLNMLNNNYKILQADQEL

The term IC50 denotes the midpoint of a concentration-inhibition curve.

This experiment addresses G1 APOL1 (Homo sapiens, UniProt O14791, I384M/S342G). In words: Acute APOL1 Thallium Assay with inducible stable clones of HEK 293 cells. The note with it: read-out: Thallium Assay (IC50); HEK 293 T-Rex cells expressing G1 APOL1. From the text: Acute APOL1 Thallium Assay with Inducible Stable Clones of HEK 293 Cells
Apolipoprotein L1 (APOL1) proteins form potassium-permeable cation pores in the plasma membrane. APOL1 risk variants (G1 and G2) induce greater potassium flux than G0 in HEK293 cells. This assay exploits the permeability of thallium (Tl+) through ligand-gated potassium channels. The dye produces a bright fluorescent signal upon binding to Tl+ conducted through potassium channels. The intensity of the Tl+ signal is proportional to the number of potassium channels in the open state. Therefore, it provides a functional indication of the potassium channel activities. During the initial dye-loading step, the Tl+ indicator dye as an acetoxymethyl (AM) ester enters the cells through passive diffusion. […] The increase of fluorescence in the assay represents the influx of Tl+ into the cell specifically through the potassium channel (i.e. through APOL1 pores), providing a functional measurement of potassium channel/pore activity. […]
Preparation of Cell Assay Plates • Culture medium is removed from the x cm^2 T-flask by aspiration. • The cell monolayer is rinsed with PBS 1× at room temperature. […] Cell suspension is then transferred to a 50 mL Falcon polypropylene tube. • Cells are then counted using a Biorad TC10 cell counter and the required amount of cells are centrifuged at 1200 RPM for 5 minutes. […]

Take `CC(CO)(CO)NC(=O)[C@H]1C[C@@H](c2c(-c3ccc(F)cc3)[nH]c3c(F)cc(F)cc32)C1`: the IC50 was 250 to 1000 nM.
